Calls of active or inactive are those of the source.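 The calls were made as follows: active = tumour findings in long-term animal cancer tests in more than one sex, species or organ; inactive = no tumour finding and more than one negative test.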
Experiment: DSSTox (CPDBAS) Carcinogenic Potency Database Summary MultiCellCall Results
Conditions: animal carcinogenicity bioassays, multi-cell call summary

Structure (SMILES): COP(=S)(OC)SCCNC(C)=O
- outcome: inactive; multisex inactive

Structure (SMILES): C[As](=O)(O)O
- outcome: inactive; multisex inactive; multispecies inactive

Structure (SMILES): CN(N=O)C(=N)N[N+](=O)[O-]
- outcome: active; multisite active; multisex active; multispecies active

Structure (SMILES): O=C1C2CC=CCC2C(=O)N1SC(Cl)(Cl)C(Cl)Cl (stereo not drawn)
- outcome: active; multisite active; multisex active; multispecies active

Structure (SMILES): COP(=O)(OC)N1CCOCC1
- outcome: active; multisex active

Structure (SMILES): NC(=O)Nc1ccc([As](=O)(O)O)cc1
- outcome: inactive; multisex inactive

Structure (SMILES): CCN(N=O)C(=N)N[N+](=O)[O-]
- outcome: active; multisite active

Structure (SMILES): C1CN1
- outcome: active; multisite active; multisex active
